Reference: ChEMBL document CHEMBL3638843, “Urokinase inhibitors, production and use thereof” (2013)

Chains of the proteins cited; added tags and fusions are not shown.
UniProt P00762, whole entry: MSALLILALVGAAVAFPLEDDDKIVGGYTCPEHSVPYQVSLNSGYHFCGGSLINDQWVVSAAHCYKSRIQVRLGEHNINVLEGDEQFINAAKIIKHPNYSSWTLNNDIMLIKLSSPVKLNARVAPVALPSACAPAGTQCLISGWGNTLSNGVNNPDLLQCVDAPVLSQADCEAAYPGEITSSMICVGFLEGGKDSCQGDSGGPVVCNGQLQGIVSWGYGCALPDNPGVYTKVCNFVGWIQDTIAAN

Biological target: Serine protease 1 (Rattus norvegicus, UniProt P00762)
Assay: Enzyme Assay: Inhibition constant of the compound against Trypsin

## N=C(N)c1ccc(CNC(=O)[C@H](CO)NC(=O)[C@@H](CO)NS(=O)(=O)Cc2ccccc2)cc1
  Ki: 22 nM
